From US11666578B2, “Small molecule inhibitors of CDK12/CDK13” (The Scripps Research Institute, priority 2018, dated 2023)

System: BCM-3613 tumors
Assay: PDX efficacy study, BCM-3613 orthotopic tumors
Type: in vivo, SCID/Beige mice
Conditions: BCM-3613 trastuzumab-resistant PDX, vs vehicle
Description: BCM-3613 is a PDX model derived from a patient that acquired resistance to trastuzumab. BCM-3613 explants were implanted into the cleared mammary fat-pad of SCID/Beige recipient mice.
Studies were performed to determine the efficacy of the highly specific dual CDK12/CDK13 or single CDK13 inhibitors in pre-clinical models of human breast cancer. Four patient derived orthotopic breast xenograft models were used to validate targeting CDK12/13 or CDK13 alone as an anti-cancer strategy in subsets of breast cancer. […] Experiments therefore included 7-12 tumor bearing mice per experimental or control (vehicle) cohort with mice randomized prior to treatment to determine random sampling such that the median tumor size between cohorts was the same. All tumors sizes were measured throughout the duration of the experiment and graphed in figures without excluding any samples. For survival analyses, mice were euthanized when moribund, and/or when tumors became ulcerated or reached greater than 1.0 cm^3. […]
All animal studies are approved by the Scripps Florida IACUC. […] Tumor growth was measured in two dimensions using calipers and tumor volume calculated (v=0.5×length×width^2). […] Growth rates were monitored at indicated times and tumors were harvested for histopathology and lysate preparation for western blotting once vehicle treated tumors reached 0.8-1 cm^3.

trastuzumab [reference compound]
Tumor growth, single agent: no efficacy over vehicle treated cohort
